Source: patent US7737155B2, “Nitrogen-containing heterocyclic compounds and methods of use thereof” (Schering Corporation, priority 2005, dated 2010)
pEC50: −log10 of the molar value.

Protein sequences, listed by entry. Tags and fused reporters are not part of them.
UniProt Q8TDS4, whole entry: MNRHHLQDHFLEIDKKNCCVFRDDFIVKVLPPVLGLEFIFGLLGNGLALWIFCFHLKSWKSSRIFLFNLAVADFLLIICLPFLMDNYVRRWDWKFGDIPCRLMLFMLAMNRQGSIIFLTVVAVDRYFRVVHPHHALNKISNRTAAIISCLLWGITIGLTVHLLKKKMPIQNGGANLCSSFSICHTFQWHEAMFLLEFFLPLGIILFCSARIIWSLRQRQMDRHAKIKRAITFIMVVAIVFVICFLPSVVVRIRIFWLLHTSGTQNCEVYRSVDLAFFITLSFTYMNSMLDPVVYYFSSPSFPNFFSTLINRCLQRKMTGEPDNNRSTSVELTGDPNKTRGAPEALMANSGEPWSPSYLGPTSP

Biological target: recombinant human nicotinic acid receptor (NAR) (Homo sapiens, UniProt Q8TDS4)
Test: Nicotinic Acid Receptor Assay: inhibition of forskolin-stimulated cAMP accumulation in CHO cells (MesoScale Discovery cAMP kit)
Assay type: cell-based
Details: read-out: NA EC50 camp, CHO cells expressing recombinant human NAR

Row | Compound | pEC50
1 | CCc1cc(=O)oc2nc(OCC3CN(Cc4ccccc4)CCO3)[nH]c(=O)c12 (centres unmarked) | < 6.00
2 | CCc1cc(=O)oc2nc(OCCOc3cccc(C(F)(F)F)c3)[nH]c(=O)c12 | 6.00 to 7.00
